# Reference: PubChem BioAssay AID847 (SRMLSC, 2007)
# The list shows a part of the results, in another mix than the full data. Activity calls are given as the source filed them.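 Rule for the calls: active = viability at or below the median of all test compounds minus 3 SD, in both replicates if run twice (cut at about 45% in these data); inconclusive = duplicate replicates that disagree with each other; inactive = viability above that cutoff in every replicate.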
# Assay: SK-BR-3 proliferation inhibitors, primary screen, cell-based, human, 24 h (AID 847);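 note: 100% = median untreated cell wells and 0% = median positive control drug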
# Conditions: SK-BR-3 viability, CellTiter-Glo ATP luminescence, at 10 µM, stronger effect = lower value
row,Structure (SMILES),viability
1,Cc1nc2ccc3ccccc3c2s1.O=[N+]([O-])c1cc([N+](=O)[O-])c(O)c([N+](=O)[O-])c1,inactive: 86.2%
2,Cc1ccc(C)c(NP(C)(=O)Oc2ccccc2)c1 (centres undefined),inactive: 92.4%
3,Cc1ccc(NP(C)(=O)Oc2ccccc2)c(C)c1 (centres undefined),inactive: 88.3%
4,COc1ccccc1OP(C)(=O)Nc1ccc(C)cc1 (centres undefined),inactive: 61.1%
5,CP(=S)(Nn1cnnc1)Oc1ccccc1 (centres undefined),inactive: 107%
6,CP(=O)(NC(=O)Nc1ccccc1)Oc1ccccc1 (centres undefined),inactive: 88.7%
7,CP(=O)(Oc1ccccc1)N1CCOC1=O (centres undefined),inactive: 113%
8,COc1ccccc1OP(C)(=O)Nc1c(C)n(C)n(-c2ccccc2)c1=O (centres undefined),inactive: 51.2%
9,CCN(CC)CC(O)COC(=O)C(O)(c1ccccc1)C1CCCCC1 (centres undefined),inactive: 80.5%
10,COc1ccccc1OP(C)(=O)Nc1ccc(C)c(C)c1 (centres undefined),inactive: 92.5%
11,CN(C)CCOC(=O)C(O)(c1ccccc1)C1CCCCC1 (centres undefined),inactive: 102%
12,CCOP(C)(=S)SCC(=O)NC(C)(CC)C(=O)O (centres undefined),inactive: 105%
13,Cc1ccccc1NP(C)(=O)Nc1ccccc1C,inactive: 88.3%
14,CP(=O)(Nc1ccc2c(c1)OCCO2)Oc1ccccc1 (centres undefined),inactive: 57.4%
